For orientation: IC50 means the concentration at which inhibition is half-maximal.

The chains behind the UniProt entries cited, without tags or fusion partners.
UniProt Q92633, whole entry: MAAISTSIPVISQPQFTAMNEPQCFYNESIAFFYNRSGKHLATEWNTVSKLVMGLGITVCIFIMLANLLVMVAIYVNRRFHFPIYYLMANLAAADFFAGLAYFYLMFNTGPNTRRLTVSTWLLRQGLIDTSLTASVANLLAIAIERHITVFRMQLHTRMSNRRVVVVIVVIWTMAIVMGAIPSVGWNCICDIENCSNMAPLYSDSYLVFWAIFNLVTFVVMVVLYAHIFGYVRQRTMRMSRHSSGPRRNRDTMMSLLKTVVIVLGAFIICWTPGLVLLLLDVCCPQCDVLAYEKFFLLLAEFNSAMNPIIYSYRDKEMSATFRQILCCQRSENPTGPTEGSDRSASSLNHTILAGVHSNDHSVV

Drawing on patent US20250179045A1, “LPAR1 ANTAGONISTS AND USES THEREOF” (Contineum Therapeutics, Inc., priority 2021, published 2025), this text covers IC50 for 7 molecules.

Like-named read-outs stand apart in the source and are kept apart here.

In this experiment the target is human LPA1 (Homo sapiens, UniProt Q92633). Briefly: In vitro functional assay of lysophosphatidic acid receptor 1 activity (calcium flux). The note with it: read-out: LPA1 IC50, B103 cells stably expressing human LPA1, Fluo-4 NW calcium flux after lysophosphatidic acid (18:1) at EC80, compounds 100 pM to 10 μM.

In the case of `COc1ccc(NC(=O)C2(c3ccccc3C(C)C)CNC(=O)C2)c(OC(F)F)n1` (single isomer, unassigned), the IC50 reads like this: (listed as 89-isomer A) 0.01 to 0.1 µM; (listed as 89-isomer B) 0.1 to 1 µM.

In the case of `Cc1ccc(NC(=O)C2(c3ccccc3C(C)C)CNC(=O)C2)c(OC(F)F)n1` (single isomer, unassigned), the IC50 (listed as 90-isomer A) was in the range of 0.01 to 0.1 µM and the IC50 (listed as 90-isomer B) lay within 0.1 to 1 µM.

As to `CC(C)c1ccccc1C1(C(=O)Nc2ncc(Cl)cc2OC(F)F)CC(=O)N(C)C1` (single isomer, unassigned), the IC50 reads like this: (listed as 76-isomer A) 0.1 to 1 µM; (listed as 76-isomer B) 0.01 to 0.1 µM.

For `COc1ccc(NC(=O)C2(c3ccccc3C(C)C)CC(=O)N(C)C2)c(OC(F)F)n1` (single isomer, unassigned), the IC50 is 0.01 to 0.1 µM.

With `Cc1ccc(NC(=O)C2(c3ccccc3C(C)C)CC(CC(=O)O)C2)c(OC(F)F)n1` (single isomer, unassigned), the IC50 was less than 0.01 µM.

On to `COc1ccc(NC(=O)C2(c3ccccc3C(C)C)CC(CC(=O)O)C2)c(OC(F)F)n1` (single isomer, unassigned), for which the half-maximal inhibitory concentration (IC50) is less than 0.01 µM.

Consider `CC(C)c1ccccc1C1(C(=O)Nc2ccc(Cl)cn2)CC(CC(=O)O)C1` (single isomer, unassigned), for which the concentration for half-maximal inhibition (IC50) fell in the range of 0.01 to 0.1 µM.
